Data on one substance can be found in patent USRE47512E1, “Imidazole and imidazolium resins and methods for preparing curable imidazolium antimicrobial resins” (DENTSPLY SIRONA INC., priority 2011, dated 2019).

The nature of the data set: Solubility of resins @ 37° C. Format: physicochemical. Conditions: Table II.

Consider “HEMA-based Monoimidazoliumbromide-dimethacrylate Resin [Example 4]”, for which the “Solubility @ 37° C. in EtOH” value (EtOH) is “soluble”. In addition, the “Solubility @ 37° C. in water/ethanol (50:50, w/w %)” value (water/ethanol 50:50) is recorded as “soluble”.
